Key:
[1] = test system: electron transport chain (Complex I, Complex II, Complex IV); assay: Mitochondrial electron flow assay; type: biochemical, mouse
Protocol: Mitochondria were isolated from mouse liver as described above.
For the electron flow assay, the MAS buffer was supplemented with 10 mM sodium pyruvate (Complex I substrate), 2 mM malate (Complex II inhibitor), and 4 μM FCCP, and the mitochondria are seeded the same way as described for the coupling assay. After basal readings, the sequential injections were as follows: 2 μM rotenone (Complex I inhibitor), 10 mM succinate (Complex II substrate), 4 μM antimycin A (Complex III inhibitor), and 10 mM/100 μM ascorbate/tetramethylphenylenediamine (Complex IV substrate).

Sequences of proteins named here, by UniProt entry; tags and fusion partners are left off. A change or cut given only in a name is not applied to a line headed by its entry.
UniProt P56480: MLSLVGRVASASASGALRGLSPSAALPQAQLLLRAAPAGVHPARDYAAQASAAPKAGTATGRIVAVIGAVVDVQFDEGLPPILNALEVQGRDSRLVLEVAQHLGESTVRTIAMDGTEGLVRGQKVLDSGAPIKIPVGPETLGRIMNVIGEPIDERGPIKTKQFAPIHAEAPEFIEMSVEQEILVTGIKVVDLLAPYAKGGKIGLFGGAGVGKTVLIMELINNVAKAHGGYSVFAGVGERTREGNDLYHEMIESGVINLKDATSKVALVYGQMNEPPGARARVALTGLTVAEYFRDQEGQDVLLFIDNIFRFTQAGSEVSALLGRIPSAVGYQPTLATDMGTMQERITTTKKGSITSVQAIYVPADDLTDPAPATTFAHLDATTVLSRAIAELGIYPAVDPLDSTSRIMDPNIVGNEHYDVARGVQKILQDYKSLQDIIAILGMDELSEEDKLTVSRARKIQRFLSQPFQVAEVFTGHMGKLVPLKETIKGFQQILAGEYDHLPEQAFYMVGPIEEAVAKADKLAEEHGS

[2] = test system: HEK-293 cells; conditions: 72 hours
[3] = test system: U87 cells; assay: Metabolic profile analysis (LC-MS); conditions: octyl α-KG treated samples
[4] = target: T1, ATP synthase (Complex V) (Mus musculus, UniProt P56480); assay: Mitochondrial coupling assay / respiratory control ratio; type: biochemical; conditions: mouse liver mitochondria
T1 construct: Mitochondria were isolated from mouse liver as described above; from tissue; host or cells: isolated mouse liver mitochondria
Protocol: Mitochondrial RCR was analyzed using isolated mouse liver mitochondria (see Brand, et al. Biochem J 435, 297-312 (2011) and references therein). Mitochondria were isolated from mouse liver as described above. The final mitochondrial pellet was resuspended in 30 μl of MAS buffer (70 mM sucrose, 220 mM mannitol, 10 mM KH2PO4, 5 mM MgCl2, 2 mM HEPES, 1 mM EGTA, and 0.2% fatty acid free BSA, pH 7.2).
Isolated mitochondrial respiration was measured by running coupling and electron flow assays as described (Rogers, et al. PLoS One 6, e21746 (2011)). For the coupling assay, 20 μg of mitochondria in complete MAS buffer (MAS buffer supplemented with 10 mM succinate and 2μM rotenone) were seeded into a XF24 Seahorse plate by centrifugation at 2,000×g for 20 minutes at 4° C. Just before the assay, the mitochondria were supplemented with complete MAS buffer for a total of 500 μl (with 1% DMSO, octanol, octyl α-KG, or octyl 2-HG), and warmed at 37° C. for 30 minutes before starting the oxygen consumption rate measurements. Mitochondrial respiration begins in a coupled State 2; State 3 is initiated by 2 mM ADP; State 4o (oligomycin-insensitive, i.e., Complex V-independent) is induced by 2.5 μM oligomycin and State 3u (FCCP uncoupled maximal respiratory capacity) by 4 μM FCCP. Finally, 1.5 μg/ml antimycin A was injected at the end of the assay. The State 3/State 4o ratio gives the respiratory control ratio (RCR).

[5] = test system: DBA2/J female mice; assay: Isoproterenol-induced hypertrophy and heart failure in mice; type: in vivo, mouse; conditions: ISO 30 μg/g/day 3 weeks plus octyl α-KG 0.5 mg/g daily in chow; ISO+octanol 7.26±0.12; Mean, STEDV
Protocol: Hypertrophy and heart failure were induced by chronic infusion of isoproterenol for 3 weeks at a dose of 30 μg per gram bodyweight per day using osmotic mini-pumps (Alzet, model 1004). DBA2/J female mice at 8 weeks old were used for this study. […] ISO-induced cardiac hypertrophy and cardiomyopathy were determined at the end of experiment by assessing heart size and heart to body weight ratio.
More importantly, cardiac output was assessed and the cardiac ejection fractions were determined by echocardiography. The cardiac EF for the basal levels before the treatment is 55.1%±2.6 (n=14).

CCCCCCCCOC(=O)C(=O)CCC(=O)O [octyl α-KG, octyl α-ketoglutarate]
Complex I, Complex II, or Complex IV respiration ([1]; 30 minutes treatment, 800 μM): No difference
electron flow assay, 1-octyl versus 5-octyl ester ([1]; mouse liver mitochondria): identical results
autophagy (MAP1 LC3 Western blot) [2]: increased
accumulation of α-KG in metabolic profile [3]: the most profound change
coupling assay, 1-octyl versus 5-octyl ester [4]: identical results
state 3 respiration ([4]; 800 μM): decreases
state 4o or 3u respiration ([4]; 800 μM, P=0.997): not
respiratory control ratio ([4]; 800 μM, vehicle 5.2 ±1.0): 3.1 ±0.6
heart (mg)/body (g) ratio [5]: 6.81 ± 0.24 mg/g

Reference: patent US20230218559A1, “Compositions and Methods for Treating Aging and Age-Related Diseases and Symptoms” (The Regents of the University of California, priority 2014, published 2023)
